Experimental findings from patent publication US5760092A, “Allocolchinones and uses thereof” (Brandeis University, priority 1996, dated 1998) are described below.

Data set [1] relates to NCI-H322M non-small cell lung cancer cells.
For data set [2], the system named is COLO 205 colon cancer cells. To be noted: from LC50.

On to `CCCC(=O)NC1CCc2cc(OC)c(OC)c(OC)c2-c2ccc(C(C)=O)cc21` (stereo not drawn), for which, in data set [1], the GI50 (usually the concentration giving 50% growth inhibition) is < 0.01 µM and the total growth inhibition concentration (TGI) (in general, the concentration at which net growth stops) is > 100 µM. Moreover, the “Percent Growth” value in data set [1] (log10 conc -6.0, 1 µM) is 50%. Besides, in data set [1] (read-out: LC50, human, nci-h322m lung cancer cells), the CC50 is > 100 µM. Moreover, the “selectivity against COLO 205” value in data set [2] is listed as “selective”.
As for `COc1cc2c(c(OC)c1OC)-c1ccc(C(C)=O)cc1C(NC(C)=O)CC2` (stereo not drawn), the “selectivity against COLO 205” value in data set [2] is listed as “selective”.
